Laboratory results taken from patent publication US20090028925A1, “Novel Phosphinic Acid-Containing Thyromimetics” (priority 2005, published 2009).

Protein sequences, listed by entry. Tags and fused reporters are not part of them. Residues count along the entry.
UniProt P10828, whole entry: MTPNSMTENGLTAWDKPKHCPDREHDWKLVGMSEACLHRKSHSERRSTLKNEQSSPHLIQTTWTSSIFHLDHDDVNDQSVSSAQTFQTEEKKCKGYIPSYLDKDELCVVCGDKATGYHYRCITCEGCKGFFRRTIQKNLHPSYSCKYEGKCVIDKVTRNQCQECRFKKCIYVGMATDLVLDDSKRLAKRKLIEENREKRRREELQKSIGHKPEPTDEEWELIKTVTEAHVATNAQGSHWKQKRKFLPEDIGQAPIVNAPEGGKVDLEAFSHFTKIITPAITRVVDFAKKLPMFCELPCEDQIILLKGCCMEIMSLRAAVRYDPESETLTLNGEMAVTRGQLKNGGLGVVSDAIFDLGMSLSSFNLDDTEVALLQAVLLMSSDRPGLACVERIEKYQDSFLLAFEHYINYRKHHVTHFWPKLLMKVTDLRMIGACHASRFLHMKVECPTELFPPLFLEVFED
UniProt P10827, 1-410 isoform 2: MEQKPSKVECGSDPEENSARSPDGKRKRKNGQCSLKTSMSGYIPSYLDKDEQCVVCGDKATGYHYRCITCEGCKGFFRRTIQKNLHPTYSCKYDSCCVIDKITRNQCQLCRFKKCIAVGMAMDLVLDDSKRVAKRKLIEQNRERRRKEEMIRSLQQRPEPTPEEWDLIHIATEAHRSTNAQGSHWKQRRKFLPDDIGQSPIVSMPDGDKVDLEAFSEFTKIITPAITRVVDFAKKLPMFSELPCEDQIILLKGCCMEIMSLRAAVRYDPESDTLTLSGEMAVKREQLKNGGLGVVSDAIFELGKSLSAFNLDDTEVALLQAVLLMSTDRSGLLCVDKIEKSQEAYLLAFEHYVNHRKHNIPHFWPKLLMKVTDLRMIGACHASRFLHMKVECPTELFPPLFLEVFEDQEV
UniProt P19793, whole entry partner: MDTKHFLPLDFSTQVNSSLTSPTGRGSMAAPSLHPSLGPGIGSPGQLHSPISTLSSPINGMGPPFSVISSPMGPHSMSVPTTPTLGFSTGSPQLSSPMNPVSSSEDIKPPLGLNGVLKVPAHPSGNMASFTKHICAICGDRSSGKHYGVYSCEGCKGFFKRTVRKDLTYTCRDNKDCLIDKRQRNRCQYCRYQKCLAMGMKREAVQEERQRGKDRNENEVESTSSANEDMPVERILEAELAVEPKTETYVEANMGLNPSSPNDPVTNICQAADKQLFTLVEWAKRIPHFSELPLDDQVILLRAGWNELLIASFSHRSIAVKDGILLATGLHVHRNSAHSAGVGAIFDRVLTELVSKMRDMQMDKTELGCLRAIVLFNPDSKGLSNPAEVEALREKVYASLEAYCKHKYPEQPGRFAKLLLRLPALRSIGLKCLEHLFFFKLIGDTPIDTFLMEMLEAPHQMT

Tests used:
[1] = target: human thyroid hormone receptors TRβ1 (Homo sapiens, UniProt P10828); test: Receptor binding to TRβ1 (gel filtration and scintillation proximity assay, labeled T3); details: read-out: Ki TRβ; SPA data
[2] = target: human thyroid hormone receptors TRα1 (Homo sapiens, UniProt P10827); test: Receptor binding to TRα1 (gel filtration and scintillation proximity assay, labeled T3); details: read-out: Ki TRα; SPA data

- Ki [1]: > 2 µM
- Ki [2]: > 2 µM
SMILES: Cc1cc(C(=O)CP(=O)(O)O)cc(C)c1Cc1ccc(F)c(C(C)C)c1
